From PMC12100652 come the findings set out here.

The target of experiment [1] is pyroglutamate-modified α-synuclein 24-140 (human) (UniProt P37840). The experiment can be described thus: SEC + other: SAXS; after agitation at 12 mg/mL, 900 rpm, 37 °C, 5 h (pE62-aSyn 30 min), insoluble aggregates removed at 10,000g; Yarra SEC 3000 column, 50 mM Tris/HCl pH 7.2, 200 mM NaCl, 20 °C, 0.3 mL/min.
The target is the same in experiment [2]. The experiment can be described thus: AUC; sedimentation velocity, 42,000 rpm, 20 °C, interference detection, c(s) analysis; agitated samples diluted in 50 mM Tris/HCl pH 7.2, 200 mM NaCl; two concentrations.

One may read the stoichiometry N as a count of units in the complex or per binding partner.

“pyroglutamate-modified α-synuclein 24-140 (from UniProt P37840 24-140) (domain or fragment)”: the stoichiometry N in experiment [1] and in experiment [2] was 2 throughout.
